An excerpt weighted towards active compounds, which were near 0.94% of everything screened.
Granule exo inh: LAMP-1 surface exposure blockers, TALL-104 cells – cell-based, flow cytometry, MLPCN library, primary screen | TALL-104 LAMP-1 surface exposure; cells stimulated with thapsigargin and PMA | inhibition, % at 10 µM | 0.66% of 360,000 active | AID 651702, 2012;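 active means inhibition above about 55%, limit read from the data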
PKA-R2B activ: activators of PKA-R2B holoenzyme, primary screen, biochemical, fluorescence polarization, Cy5-IP20, human | PKA-R2B holoenzyme dissociation; R2B truncated from residue 108, S112A mutant; 0% DMSO only, 100% 113 µM cGMP | activation, % at 11.4 µM | 0.079% of 340,000 active;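 active means activation above a cutoff set at the mean over all compounds plus 3 SD, cut at about 18% in these data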;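 further: higher means more holoenzyme dissociation and a rise in polarization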
PKA-R1A activ: activators of PKA-R1A holoenzyme, primary screen, biochemical, fluorescence polarization, Cy5-IP20, bovine R1A, mouse PKAc. cAMP-dependent protein kinase type I-alpha regulatory subunit (Bos taurus) + …. PKA-R1A dissociation; scaled: DMSO 0%, 113 µM cGMP 100%. activation, % at 11.4 µM. 0.083% of 340,000 active. AID 504707, 2011;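 active means percent activation above the mean of all tested compounds plus 3 SD, cut at about 19% in these data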;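 further: higher means more PKAc released from R1A so a rise in polarization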
ABCB6 inh MLPCN: ABCB6 transporter inhibitors, primary screen, K562-ABCB6 cells, flow cytometry, MLPCN library. K562-ABCB6 porphyrin accumulation, 1 h; hits give low values. fluorescence ratio to DMSO, % at 10 µM. 0.19% of 360,000 active. AID 602162, 2011;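 active means fluorescence ratio to DMSO below 75%, the collection mean minus 3 SD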;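 further: signal is porphyrin accumulated inside mitochondria; lower ratio means ABCB6 inhibition with less porphyrin fluorescence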
pCIP destab: p/CIP-EGFP fusion destabilizers, primary screen, fluorescence, F442A cells. Q05BA5. 16 h. decrease of EGFP signal, % at 10 µM. 0.01% of 290,000 active. AID 1984, 2009;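 active means EGFP signal decrease of at least 30% at 10 µM or well 3 SD below plate mean, unless failing retest; inactive means the rest, including hits failing retest or dose response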
Yeast UUG start: modulators of yeast start codon fidelity, primary screen, whole organism, S. cerevisiae, single point, plate reader; activity score, % at 18.7 µM; actives 0.13% (n = 350,000); S. cerevisiae UUG-firefly luciferase reporter, luminescence/redox ratio;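 active = replicate mean at a twofold rise or more, about +100% in these data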;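 also: firefly luciferase made from a UUG start codon reports start codon fidelity; reporter light over untreated wells divided by growth signal over untreated wells; some hits fall short of that in this replicate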
Granule exo CP1: inhibitors of lytic granule exocytosis, confirmation, TALL-104 cells, flow cytometry, Cherry Pick01; shares compounds with Granule exo inh; LAMP-1 externalization; stimulated with PMA plus thapsigargin; inhibition, % at 10 µM; 11% of 1,500 active; AID 651954, 2012; in the data active means inhibition above about 60%
Numbers stand for hits; n = inactive; x = no result.

SMILES	Granule exo inh	PKA-R2B activ	PKA-R1A activ	ABCB6 inh MLPCN	pCIP destab	Yeast UUG start	Granule exo CP1
CC(NC(=O)C(C)N1c2cccc3cccc(c23)S1(=O)=O)c1ccccc1 (stereo not drawn)	82	n	n	n	n	n	n
O=C(C[C@@H]1C=C[C@@H](NS(=O)(=O)c2ccccc2)[C@@H](CO)O1)NCc1ccncn1	x	x	x	x	x	n	x
CCCCCCSc1ccc(-c2nc3ccccn3c2NCCCC)cc1	70	n	n	n	x	n	n
CCCCNc1c(-c2ccc(-c3cccc(Cl)c3)cc2)nc2ccccn12	n	n	n	n	x	n	x
Cc1ccc(S(=O)(=O)c2cc3c(=O)n4cccc(C)c4nc3n(C3CCCCC3)c2=N)cc1	n	n	n	n	n	n	x
Cc1ccc(S(=O)(=O)c2cc3c(=O)n4ccccc4nc3n(C3CCCC3)c2=N)cc1	88	n	n	n	n	n	n
C[C@@H]1CN([C@@H](C)CO)C(=O)Cc2cc(NS(=O)(=O)c3ccc(Cl)cc3)ccc2O[C@H]1CN(C)S(=O)(=O)c1cn(C)cn1	x	x	x	x	x	n	x
CCOC(=O)c1ccccc1NC(=O)CSc1ccc(-c2ccccn2)nn1	106	n	n	n	n	n	n
CCc1ccc(NC(=O)CSc2ccc(-c3ccccn3)nn2)cc1	n	n	n	n	n	n	x
Clc1ccc(/C=C\c2nccc3c2[nH]c2ccccc23)cc1	88	n	n	n	n	x	n
Clc1ccc(/C=C/c2nc3ccccc3[nH]2)cc1	n	n	n	n	n	n	x
CCCC#Cc1ccc2c(c1)O[C@H](CN(C)C(=O)C1CC1)[C@H](C)CN([C@H](C)CO)S2(=O)=O	x	x	x	x	x	n	x
CC1(C)CC(C(CCN(Cc2ccccc2)C(=O)c2ccco2)c2ccc(F)cc2)CCO1 (stereo not drawn)	n	n	n	n	n	n	x
O=C(c1ccco1)N(CCC(c1ccccc1)c1ccco1)Cc1ccc(F)cc1 (stereo not drawn)	59	n	n	n	n	n	n
CC(=O)CCc1oc2ccc(C)cc2c1-c1ccc(C)o1	91	n	n	n	n	x	n
CCCC#Cc1ccc2c(c1)O[C@H](CN(C)C(=O)c1ccccc1)[C@H](C)CN([C@H](C)CO)S2(=O)=O	x	x	x	x	x	n	x
COc1ccc(-c2csc3ncnc(N4CCN(c5ccc(OC)cc5)CC4)c23)cc1	n	n	n	n	n	n	x
COc1ccc(-c2csc3ncnc(N4CCN(c5ccccc5)CC4)c23)cc1	70	n	n	n	n	n	n
Cc1ccc(-c2nnc(CSc3nnc(COc4ccccc4)n3-c3ccccc3)o2)cc1	n	n	n	n	n	n	x
Cc1ccc(-c2nnc(CSc3nnc(COc4ccccc4)n3-c3ccc(C)cc3)o2)cc1	76	n	n	n	n	n	n
CCC(=O)N[C@@H]1C=C[C@@H](CC(=O)OC)O[C@@H]1CO	x	x	x	x	x	n	x
C/C=C/c1ccc([C@@H]2[C@@H](CO)N(C(C)=O)[C@H]2CN(CCC)C(C)=O)cc1	x	x	x	x	x	n	x
CC(c1ccon1)N(C)Cc1c(C(=O)N(C)Cc2ccccc2)nc2ccccn12 (stereo not drawn)	71	n	n	n	n	n	n
CN(Cc1ccccc1)C(=O)c1nc2ccccn2c1CNCCn1cccn1	n	n	n	n	n	n	x
C[C@H](CO)N1C[C@H](C)[C@H](CN(C)S(=O)(=O)c2ccccc2)OCCCC[C@H](C)Oc2ccc(NS(=O)(=O)c3cccs3)cc2C1=O	x	x	x	x	x	n	x
SMILES	Granule exo inh	PKA-R2B activ	PKA-R1A activ	ABCB6 inh MLPCN	pCIP destab	Yeast UUG start	Granule exo CP1
COc1ccc(N2C(=O)CC(Sc3nnc(-c4ccccc4)o3)C2=O)cc1 (stereo not drawn)	57	n	n	n	n	n	87
O=C1CC(Sc2nnc(-c3ccccc3O)o2)C(=O)N1c1ccccc1 (stereo not drawn)	n	n	n	n	n	n	x
Oc1ccc(-c2c(-c3ccsc3)sc3ccccc23)cc1	87	n	n	n	n	n	n
O=C(C[C@@H]1C[C@@H]2c3cc(NC(=O)Nc4ccccc4F)ccc3O[C@@H]2[C@H](CO)O1)NCc1ccncc1	x	x	x	x	x	n	x
CN(C)C(=O)c1c2c(nc3ccccc13)CCCC2	107	n	n	n	n	x	n
O=C(NCCc1ccccc1)c1nccc2ccccc12	n	n	n	n	x	n	x
c1ccc(CCNc2ccnc3cc4ccccc4cc23)cc1	56	n	n	n	n	x	92
COc1ccc(Nc2ccnc3ccccc23)cc1	n	n	n	n	n	x	x
CC(C)Nc1ccc(Nc2ccnc3cc4ccccc4cc23)cc1	79	n	n	n	n	x	n
CCOC(=O)C1CCCN(Cc2cccc(Oc3ccccc3)c2)C1 (stereo not drawn)	n	n	n	n	n	n	x
CCN(CC)C(=O)C1CCCN(Cc2cccc(Oc3ccccc3)c2)C1 (stereo not drawn)	68	n	n	n	n	x	n
O=C(C[C@@H]1CC[C@H]2[C@@H](COC[C@@H](O)CN2Cc2ccccc2F)O1)N[C@@H]1CCN(Cc2ccccc2)C1	x	x	x	x	x	n	x
CCCN1C[C@@H](C)[C@@H](OC)CN(C)C(=O)c2ccc(NC(=O)c3cnccn3)cc2OC[C@H]1C	x	x	x	x	x	n	x
CCC1=C2CC[C@H]3C(=O)N(C)C(=O)[C@H]3[C@H]2[C@@]2(Cc3ccccc3)C(=NCC(=O)OC)OC(=O)N2C1=O	84	n	n	n	n	n	n
C[C@H](CO)N1C[C@H](C)[C@H](CN(C)C(=O)Nc2cccc3ccccc23)OCCCC[C@H](C)Oc2ccc(NS(=O)(=O)c3ccc(Cl)cc3)cc2C1=O	x	x	x	x	x	n	x
Cc1ccc(-c2nn(-c3ccccc3)cc2CNCc2ccccc2)cc1	70	x	x	n	n	x	92
Cc1ccc(-c2nn(-c3ccccc3)cc2CO)cc1	n	n	n	n	n	n	x
Cc1ccc(-n2cc(CNCCCn3ccnc3C)c(-c3ccc(F)cc3)n2)cc1	57	n	n	n	n	n	n
COc1cc2c(cc1OC)C(c1ccc(-c3ccc(Cl)c(Cl)c3)o1)=NCC2	94	n	n	n	n	n	91
O=C(Nc1nc(-c2nc3ccccc3s2)cs1)c1ccc(S(=O)(=O)N2CCOCC2)cc1	62	n	n	n	n	n	n
